Experimental data: ChEMBL document CHEMBL2331215, “Discovery of novel N-substituted oxindoles as selective m1 and m4 muscarinic acetylcholine receptors partial agonists” (ACS Med Chem Lett, 2013)

Test system: Nucleic Acid
Test: Ratio of drug level in brain to blood in Sprague-Dawley rats at 1 mg/kg, sc after 1 hr by LC/MS/MS analysis
Details: rat, strain Sprague-Dawley

CCOC(=O)N1[C@@H]2CC[C@H]1C[C@H](CN1CC[C@H](N3C(=O)Cc4ccccc43)C1)C2
Ratio: 2
